From publication PMC5472181, “Drug Binding Poses Relate Structure with Efficacy in the μ Opioid Receptor” (2017)

The chains behind the UniProt entries cited, without tags or fusion partners. Where a name states a change or a piece, a line headed by the entry shows the natural chain unless it says otherwise.
UniProt P33535: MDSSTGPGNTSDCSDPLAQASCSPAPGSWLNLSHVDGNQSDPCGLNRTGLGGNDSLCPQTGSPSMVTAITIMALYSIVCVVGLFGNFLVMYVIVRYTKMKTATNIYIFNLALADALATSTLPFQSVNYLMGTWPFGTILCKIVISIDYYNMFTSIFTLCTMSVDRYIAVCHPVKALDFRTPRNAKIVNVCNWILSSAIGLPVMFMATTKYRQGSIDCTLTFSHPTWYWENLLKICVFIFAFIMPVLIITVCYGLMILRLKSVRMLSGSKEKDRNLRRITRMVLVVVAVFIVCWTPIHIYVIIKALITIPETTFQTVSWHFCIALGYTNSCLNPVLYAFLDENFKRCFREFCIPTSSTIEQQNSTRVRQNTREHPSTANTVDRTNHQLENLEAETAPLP

Legend:
[1] = molecular target: rat MOPr-yellow fluorescent protein (YFP) (Rattus norvegicus, UniProt P33535); test: BRET arrestin-3 recruitment in HEK […] cells, antagonist mode; details: 1 μM diprenorphine 10 min before 10 μM DAMGO, 0.01% DMSO
HA-tagged rat MOPr = HA-tagged rat MOPr (Rattus norvegicus, UniProt P33535); test: BRET Gi activation in HEK […] cells, antagonist mode; details: 1 μM diprenorphine 10 min before 10 μM DAMGO, 0.01% DMSO

diprenorphine
BRET arrestin-3 recruitment in HEK 293 cells, antagonist mode [1]: completely inhibited the DAMGO response for both Gi activation and arrestin-3 recruitment
BRET Gi activation in HEK 293 cells, antagonist mode (HA-tagged rat MOPr): completely inhibited the DAMGO response for both Gi activation and arrestin-3 recruitment
